Laboratory results published in patent US20060252807A1, “Novel ortho-terphenyl inhibitors of p38 kinase and methods of treating inflammatory disorders” (Kalypsys, Inc., priority 2005, published 2006).

Chains of the proteins cited; added tags and fusions are not shown.
UniProt Q16539, whole entry: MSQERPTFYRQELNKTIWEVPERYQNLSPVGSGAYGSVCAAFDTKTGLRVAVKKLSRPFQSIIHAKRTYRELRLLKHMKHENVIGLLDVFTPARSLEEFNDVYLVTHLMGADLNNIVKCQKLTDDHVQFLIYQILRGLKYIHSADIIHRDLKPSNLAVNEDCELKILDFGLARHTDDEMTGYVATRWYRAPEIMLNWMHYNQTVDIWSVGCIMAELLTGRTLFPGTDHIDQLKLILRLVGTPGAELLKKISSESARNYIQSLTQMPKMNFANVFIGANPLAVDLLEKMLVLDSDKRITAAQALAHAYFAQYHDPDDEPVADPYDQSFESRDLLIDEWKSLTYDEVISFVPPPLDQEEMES

biological target: active p38 alpha enzyme (Upstate Biotechnology) (Homo sapiens, UniProt Q16539); test: p38α biochemical assay (ATP turnover, luminescent detection, Cambrex PKlight); conditions: p38α biochemical assay, Table 1 Biological Activity
Experimental: The p38α biochemical assay employed is based on measurement of total ATP turnover following enzyme incubation with substrate in the presence of ATP with the use of a luminescent detection reagent (Cambrex PKlight). The assays were performed in 1536-well white opaque plates.
The final volume was 7.5005 μL as prepared prepared from the addition of 5 ul of kinase reaction (p38 alpah+MapkapK2+ATP) with 0.0005 μL compound dissolved in DMSO, and 2.5 ul of the detection reagent. Assay buffer contains the following reagents to give final concentration in the assay: 200 mM Tris, 100 mM MgCl2, 1.5 mM EGTA, 4 mM CaCl2, 20 mM MOPS, 1 mM EDTA, 1% glycerol, 0.1% B-Mecaptoethanol, and 1 mg/ml BSA. Test compounds are pinned using proprietary pintool technology (Kalypsys, Inc) and delivered as […] amounts into the 5 ul mixture of active p38 alpha enzyme (Upstate Biotechnology) and MapkapK2 (Upstate Biotechnology) whole protein as a substrate for phosphorylation in the presence of 1.4 uM final concentration ATP. Reactions are incubated at 30C for 2 hours and detection reagent is added in 2.5 ul/well amounts. Assay is read using a Perkin Elmer Viewlux.

IC50	SMILES
> 1000 nM	CC(C)NC(=O)c1csc(-c2oc(CN3CCN(C(=O)c4ccc(I)cc4)CC3)nc2-c2ccc(F)cc2)n1
> 1000 nM	CC(C)NC(=O)c1csc(-c2oc(CNC(=O)c3cccc(I)c3)nc2-c2ccc(F)cc2)n1
> 1000 nM	CC(C)NC(=O)c1csc(-c2oc(CN3CCN(C(=O)c4cccc(I)c4)CC3)nc2-c2ccc(F)cc2)n1
> 1000 nM	CC(C)NC(=O)c1csc(-c2oc(CNC(=O)c3ccc(I)cc3)nc2-c2ccc(F)cc2)n1

same assay, conditions: p38α kinase; Table 1 Biological Activity

IC50	SMILES
> 1000 nM	CC(C)NC(=O)c1csc(-c2c(-c3ccc(F)cc3)noc2CNC(=O)c2ccc(I)cc2)n1
> 1000 nM	Cc1cccc([N+](=O)[O-])c1C(=O)N1CCC(c2[nH]nc(-c3ccc(F)cc3)c2-c2nc(C(=O)NC(C)C)cs2)CC1
> 1000 nM	CC(C)NC(=O)c1csc(-c2c(-c3ccc(F)cc3)n[nH]c2C2CCN(C(=O)c3cccc(I)c3)CC2)n1
> 1000 nM	CC(C)NC(=O)c1csc(-c2c(-c3ccc(F)cc3)n[nH]c2C2CCN(C(=O)c3ccc(I)cc3)CC2)n1
